In patent US20250009843A1, “COMPOSITIONS AND METHODS FOR TREATMENTS BY MODULATION OF EXCITABLE TISSUES ACTIVITIES, AND FOR ANTIMICROBIAL APPLICATIONS” (priority 2021, published 2025):

Tested on: DRG cells

Poly-L-arginine hydrochloride [Hydrobloc C01]
Toxicity (cytotoxic / toxicity removed): Free large (42.5
